Test results as given in PubChem BioAssay (NCI).
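Protocol summary: plate cells (96-well), add compound at 5 concentrations, incubate 48 h, interpolate endpoints linearly. Here, GI50 denotes the concentration required for 50% inhibition of growth. TGI: concentration producing complete growth inhibition.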

How the values were obtained:
Test in all cases: DTP human tumour cell line panel, 48 h; in the data active means GI50 below about 0.43 µM; inactive means the rest
[1] = test system: LOX IMVI melanoma
[2] = test system: SN12C renal
[3] = test system: COLO 205 colon
[4] = test system: SR leukemia
[5] = test system: DU-145 prostate
[6] = test system: SK-MEL-5 melanoma
[7] = test system: OVCAR-5 ovarian
[8] = test system: CCRF-CEM leukemia
[9] = test system: UO-31 renal
[10] = test system: SK-MEL-2 melanoma
[11] = test system: SF-539 CNS
[12] = test system: MDA-MB-231 breast
[13] = test system: OVCAR-4 ovarian
[14] = test system: EKVX NSCLC
[15] = test system: UACC-257 melanoma
[16] = test system: SK-OV-3 ovarian
[17] = test system: SNB-19 CNS
[18] = test system: M14 melanoma
[19] = test system: UACC-62 melanoma
[20] = test system: NCI-H460 lung
[21] = test system: MOLT-4 leukemia
[22] = test system: K-562 leukemia
[23] = test system: MCF7 breast
[24] = test system: A549 NSCLC
[25] = test system: OVCAR-8 ovarian
[26] = test system: U251 CNS
[27] = test system: NCI/ADR-RES ovarian
[28] = test system: HOP-92 NSCLC
[29] = test system: A498 renal
[30] = test system: SNB-75 CNS
[31] = test system: ACHN renal
[32] = test system: HL-60(TB) leukemia
[33] = test system: NCI-H322M lung
[34] = test system: 786-0 renal
[35] = test system: SW-620 colon
[36] = test system: OVCAR-3 ovarian
[37] = test system: PC-3 prostate
[38] = test system: HCT-15 colon
[39] = test system: HT29 colon
[40] = test system: SF-295 CNS
[41] = test system: IGROV1 ovarian
[42] = test system: HCT-116 colon
[43] = test system: RXF 393 renal
[44] = test system: SK-MEL-28 melanoma
[45] = test system: KM12 colon
[46] = test system: TK-10 renal
[47] = test system: MDA-N
[48] = test system: CAKI-1 renal
[49] = test system: MDA-MB-435
[50] = test system: NCI-H226 lung

O=[N+]([O-])c1nc(Br)n(F)c1[N+](=O)[O-]
inactive: GI50 [1] 47.7 µM | GI50 [2] > 100 µM | GI50 [3] > 100 µM | GI50 [4] 81.5 µM | GI50 [5] > 100 µM | GI50 [6] > 100 µM | GI50 [7] > 100 µM | GI50 [8] 67.4 µM | GI50 [9] 56.7 µM | GI50 [10] > 100 µM | GI50 [11] 52.5 µM | GI50 [12] > 100 µM | GI50 [13] 76.4 µM | GI50 [14] > 100 µM | GI50 [15] > 100 µM | GI50 [16] > 100 µM | GI50 [17] > 100 µM | GI50 [18] 90 µM | GI50 [19] > 100 µM | GI50 [20] > 100 µM | GI50 [21] > 100 µM | GI50 [22] > 100 µM | GI50 [23] > 100 µM | GI50 [24] > 100 µM | GI50 [25] > 100 µM | GI50 [26] > 100 µM | GI50 [27] > 100 µM | GI50 [28] 41.6 µM | GI50 [29] > 100 µM | GI50 [30] > 100 µM | GI50 [31] 63.2 µM | GI50 [32] 19.9 µM | GI50 [33] 49.9 µM | GI50 [34] > 100 µM | GI50 [35] > 100 µM | GI50 [36] > 100 µM | GI50 [37] > 100 µM | GI50 [38] 36 µM | GI50 [39] 84.6 µM | GI50 [40] 45.7 µM | GI50 [41] > 100 µM | GI50 [42] 77.2 µM | GI50 [43] > 100 µM | GI50 [44] > 100 µM | GI50 [45] > 100 µM | GI50 [46] > 100 µM | GI50 [47] > 100 µM | GI50 [48] 69.7 µM | GI50 [49] > 100 µM | GI50 [50] 47.3 µM
> 100 µM: TGI [1] | TGI [2] | TGI [3] | TGI [4] | TGI [5] | TGI [6] | TGI [7] | TGI [8] | TGI [9] | TGI [10] | TGI [11] | TGI [12] | TGI [13] | TGI [14] | TGI [15] | TGI [16] | TGI [17] | TGI [18] | TGI [19] | TGI [20] | TGI [21] | TGI [22] | TGI [23] | TGI [24] | TGI [25] | TGI [26] | TGI [27] | TGI [28] | TGI [29] | TGI [30] | TGI [31] | TGI [32] | TGI [33] | TGI [34] | TGI [35] | TGI [36] | TGI [37] | TGI [38] | TGI [39] | TGI [40] | TGI [41] | TGI [42] | TGI [43] | TGI [44] | TGI [45] | TGI [46] | TGI [47] | TGI [48] | TGI [49] | TGI [50]
